The source of these data is patent publication US20260216206A1 (MEDINCELL SA, priority 2023, published 2026).

The nature of the data set: Open-label SAD and MAD study, pharmacokinetics in healthy subjects and patients (Example 5). In kind it is in vivo, humans. The method, then: This study was an open-label, SAD, and MAD study to evaluate the safety, tolerability, and PK of Formulation 1 in healthy subjects and patients with a diagnosis of schizophrenia or schizoaffective disorder. Healthy subjects received subtherapeutic Formulation 1 doses of up to 105 mg and patients received therapeutic doses of up to 566 mg. […] Subjects and patients who met screening eligibility were assigned to 1 of 8 active cohorts, or the Vehicle Cohort, as detailed in Table 5.1 below.
All cohorts included assessments of safety, tolerability, and intensive PK sampling.
Except for the starting dose of 70 mg, the study followed an adaptive design in which the decision to dose-escalate with Formulation 1 was based on a review of the PK and safety data from the preceding lower dose of Formulation 1.
An extensive PK collection scheme was applied following the last oral dose to fully characterize the PK at steady-state.
In multiple-dose cohorts, the 3 doses of Formulation 1 were administered on day 1, day 29 (week 4) and day 57 (week 8), respectively.

`Cc1cc2c(s1)Nc1ccccc1N=C2N1CCN(C)CC1` [olanzapine, 2-methyl-4-(4-methyl-1-piperazinyl)-10H-thieno[2,3-b][1,5]benzodiazepine]: the “Dose-normalized AUC, Geo LS Mean” value was 42.09 [h*ng/mL]/mg (Cohorts 1, 2, 3, 4, 5 and 6, AUC0-∞ for Formulation 1, AUC0-tau (28 days) for oral olanzapine); 38.12 [h*ng/mL]/mg (Cohorts 4, 5 and 6, AUC0-∞ for Formulation 1, AUC0-tau (28 days) for oral olanzapine); 49.25 [h*ng/mL]/mg (Cohorts 8 and 9, AUC0-tau 3rd dosing interval for Formulation 1, AUC0-tau28 d for oral olanzapine).
